In paper PMC5577515, “Peptide‐Directed Binding for the Discovery of Modulators of α‐Helix‐Mediated Protein–Protein Interactions: Proof‐of‐Concept Studies with the Apoptosis Regulator Mcl‐1” (Angewandte Chemie (International Ed. in English), 2017) one finds IC50 data, which are given here for two compounds.

By UniProt entry, the sequences of proteins in these tests, tags left out. Residues count along the entry.
UniProt P97287, 152-189 limits assumed: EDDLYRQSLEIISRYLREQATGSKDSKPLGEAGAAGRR
UniProt Q07820, 209-327 limits assumed: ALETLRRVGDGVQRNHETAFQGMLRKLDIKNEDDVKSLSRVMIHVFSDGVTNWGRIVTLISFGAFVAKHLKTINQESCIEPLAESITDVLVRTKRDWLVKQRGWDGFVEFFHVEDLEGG

Assay [1] concerns the target Mcl-1 (UniProt P97287+Q07820). Briefly: Competitive fluorescence anisotropy (FA) assay, FITC-NoxaB displacement from Mcl-1. The note with it: read-out: FA IC50; Table 2; inhibition of binding of 5 nM FITC-NoxaB to 10 nM Mcl-1; PBS, 0.05% Tween-20, pH 7.4; non-linear regression of at least three experiments; errors = transformed greater extreme of standard error.
For assay [2], the system named is BxPC-3 cells. The experiment in a line: MTS cytotoxicity assay, BxPC-3. The note with it: read-out: BxPC-3 cell growth inhibition IC50, 72 h, 37 °C, triplicate, at least three experiments, errors = transformed greater extreme of standard error. Background: Formazan colour is commonly taken as a measure of viable cells.
Assay [3] relates to AsPC-1 cells. Briefly: MTS cytotoxicity assay, AsPC-1. The settings on record: read-out: AsPC-1 cell growth inhibition IC50, 72 h, 37 °C, triplicate, at least three experiments, errors = transformed greater extreme of standard error.
The test system of assay [4] is MiaPaCa-2 cells. The experiment in a line: MTS cytotoxicity assay, MiaPaCa-2. The note with it: read-out: MiaPaCa-2 cell growth inhibition IC50, 72 h, 37 °C, triplicate, at least three experiments, errors = transformed greater extreme of standard error.

In general, IC50 refers to the concentration that inhibits the measured activity by half. Consider `CCCCCCCc1cn(CC(=O)O)nn1`, for which the IC50 is 0.102 µM in assay [1], > 100 µM in assay [2], > 100 µM in assay [3] and > 100 µM in assay [4].

In the case of `CCCCCCCc1cn(Cc2ccccc2)nn1`, the half-maximal inhibitory concentration (IC50) is 0.033 µM in assay [1], > 100 µM in assay [2], > 100 µM in assay [3] and > 100 µM in assay [4].
